Like-named read-outs stand apart in the source and are kept apart here.
What was measured:
[1] = for ClO2 concentration detected: UV 254 nm 15 min
[2] = type: physicochemical; details: upper detection limit 240 ppm
[3] = 254 nm 15 min, stored in N2, release at 60% RH

Substance: sodium chlorite [NaClO2]
- total ClO2 potentially available for release in the system ([1]; 100 mg NaClO2 sample): ~60 mg
- time activated samples maintain the same activity level [1, 3]: about fifteen
- time activated samples retain activity (still release ClO2) [1, 3]: ≥ 48 h
- time after which a meaningful decrease in activity starts [1, 3]: twenty four
- total ClO2 produced in 15 min during the release step ([1]; 254 nm, 30-75% RH): 2 to 25 µg
- UV-irradiation time up to which amount of ClO2 released increased ([1]; 254 nm, release 15 min at 60% RH): up to 10 min
- total ClO2 produced in 15 min during the release step ([1]; 312 nm, 45-75% RH): 1.5 to 15 µg
- total ClO2 produced in 15 min during the release step ([1]; 365 nm, 45-75% RH): 0.9 to 7 µg
- ClO2 concentration detected ([1]; moist N2 15% RH): no ClO2 was detected
- ClO2 concentration detected ([1]; moist N2 30% RH): 0.01-0.13 ppm
- ClO2 concentration detected ([1]; moist N2 45% RH): 0.08-0.3 ppm
- ClO2 concentration detected ([1]; moist N2 60% RH): 0.15-0.65 ppm
- ClO2 concentration detected ([1]; moist N2 75% RH, detector range 0-1 ppm): 0.28-1 ppm
- release of ClO2 from non-activated samples ([1]; UV duration experiment, 0 min UV, 60% RH): no release of ClO2 could be detected
- minimum RH at which detectable levels of ClO2 (>0.01 ppm) is produced ([1]; UV-activation 254 nm): 30%
- minimum RH at which detectable levels of ClO2 (>0.01 ppm) is produced ([1]; UV-activation 312 nm): 45%
- minimum RH at which detectable levels of ClO2 (>0.01 ppm) is produced ([1]; UV-activation 365 nm): 45%
- effect of initial moisture content on ClO2 release ([1]; equilibrated 1 h at RH 0-75%, 254 nm 15 min, release in dry N2): ClO2 release from activated samples increases with increasing the initial moisture content of NaClO2
- ClO2 detected in control samples ([1]; no UV light during activation step): no ClO2 was detected
- tunability of quantity of ClO2 released ([1]; varying UV wavelength, relative humidity, duration of UV exposure): ~25 fold

Substance: sodium chlorite [Sample 6]
- ClO2 concentration after fluorescent light exposure ([2]; 20 mL sealed vial, compact fluorescent light approximately 4.5 hours): 63 ppm
- ClO2 concentration after UV (254 nm) light exposure ([2]; subsequent UV 254 nm 15 seconds): >240 ppm
